Source: the kinase profiling compilation of Christmann-Franck et al. (2016)
Where “and” joins values, the source holds several entries; their conditions need not be identical. Identical values can stand only once.

The chains behind the UniProt entries cited, without tags or fusion partners. Where a name states a change or a piece, a line headed by the entry shows the natural chain unless it says otherwise.
UniProt Q16832: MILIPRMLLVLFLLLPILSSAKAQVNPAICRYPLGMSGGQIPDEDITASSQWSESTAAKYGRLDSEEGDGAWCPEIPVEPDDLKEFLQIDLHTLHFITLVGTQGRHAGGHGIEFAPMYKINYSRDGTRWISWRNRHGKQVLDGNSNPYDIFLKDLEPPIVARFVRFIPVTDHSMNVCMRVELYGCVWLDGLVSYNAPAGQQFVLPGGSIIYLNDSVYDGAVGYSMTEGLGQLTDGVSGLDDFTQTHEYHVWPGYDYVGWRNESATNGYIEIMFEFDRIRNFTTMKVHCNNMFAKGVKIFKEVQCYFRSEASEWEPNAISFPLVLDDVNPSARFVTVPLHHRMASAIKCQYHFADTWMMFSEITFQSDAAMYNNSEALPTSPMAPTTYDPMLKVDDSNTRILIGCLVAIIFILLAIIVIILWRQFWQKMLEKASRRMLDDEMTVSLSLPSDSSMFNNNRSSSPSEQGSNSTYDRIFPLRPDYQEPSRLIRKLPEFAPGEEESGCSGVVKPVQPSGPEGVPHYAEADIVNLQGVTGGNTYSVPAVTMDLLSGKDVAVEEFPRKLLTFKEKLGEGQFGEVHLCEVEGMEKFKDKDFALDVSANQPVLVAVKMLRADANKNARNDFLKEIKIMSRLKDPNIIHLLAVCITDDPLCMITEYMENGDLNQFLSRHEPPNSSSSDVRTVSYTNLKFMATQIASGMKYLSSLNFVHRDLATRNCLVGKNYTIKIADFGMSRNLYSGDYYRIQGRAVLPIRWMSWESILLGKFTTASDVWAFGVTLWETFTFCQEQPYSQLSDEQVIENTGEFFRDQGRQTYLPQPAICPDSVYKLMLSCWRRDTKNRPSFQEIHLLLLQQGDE
UniProt P29320: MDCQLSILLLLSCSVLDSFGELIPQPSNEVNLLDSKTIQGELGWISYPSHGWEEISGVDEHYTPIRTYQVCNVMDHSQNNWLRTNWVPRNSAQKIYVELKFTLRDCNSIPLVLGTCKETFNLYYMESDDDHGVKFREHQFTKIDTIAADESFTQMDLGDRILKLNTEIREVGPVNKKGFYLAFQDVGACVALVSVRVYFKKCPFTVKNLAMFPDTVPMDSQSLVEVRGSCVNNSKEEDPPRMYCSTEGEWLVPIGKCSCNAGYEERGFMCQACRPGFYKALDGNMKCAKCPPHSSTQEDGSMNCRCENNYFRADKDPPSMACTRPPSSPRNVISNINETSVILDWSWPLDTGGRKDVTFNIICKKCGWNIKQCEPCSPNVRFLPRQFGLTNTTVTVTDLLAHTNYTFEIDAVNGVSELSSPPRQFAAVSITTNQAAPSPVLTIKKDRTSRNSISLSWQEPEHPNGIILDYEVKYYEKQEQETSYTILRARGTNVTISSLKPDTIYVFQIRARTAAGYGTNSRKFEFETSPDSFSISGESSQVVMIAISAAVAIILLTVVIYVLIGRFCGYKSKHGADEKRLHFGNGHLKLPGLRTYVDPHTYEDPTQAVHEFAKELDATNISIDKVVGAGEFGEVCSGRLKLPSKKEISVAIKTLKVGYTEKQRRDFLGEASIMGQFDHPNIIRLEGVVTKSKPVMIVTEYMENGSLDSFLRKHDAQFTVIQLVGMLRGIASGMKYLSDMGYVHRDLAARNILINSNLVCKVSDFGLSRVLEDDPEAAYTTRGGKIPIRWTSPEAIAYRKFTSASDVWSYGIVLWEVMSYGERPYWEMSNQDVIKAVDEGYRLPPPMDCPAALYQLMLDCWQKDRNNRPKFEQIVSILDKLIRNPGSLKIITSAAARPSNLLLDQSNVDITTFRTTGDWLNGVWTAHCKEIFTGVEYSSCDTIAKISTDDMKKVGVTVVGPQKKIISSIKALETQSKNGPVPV
UniProt Q9UIK4: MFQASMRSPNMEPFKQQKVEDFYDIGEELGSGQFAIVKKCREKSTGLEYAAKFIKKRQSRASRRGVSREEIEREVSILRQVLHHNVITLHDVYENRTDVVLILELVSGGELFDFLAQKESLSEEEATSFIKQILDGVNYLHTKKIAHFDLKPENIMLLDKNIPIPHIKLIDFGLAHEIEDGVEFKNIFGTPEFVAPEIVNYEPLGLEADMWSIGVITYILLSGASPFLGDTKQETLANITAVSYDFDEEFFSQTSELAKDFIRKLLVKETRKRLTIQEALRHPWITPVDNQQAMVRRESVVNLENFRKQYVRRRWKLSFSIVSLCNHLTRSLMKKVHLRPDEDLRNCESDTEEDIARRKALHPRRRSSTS
UniProt P07948: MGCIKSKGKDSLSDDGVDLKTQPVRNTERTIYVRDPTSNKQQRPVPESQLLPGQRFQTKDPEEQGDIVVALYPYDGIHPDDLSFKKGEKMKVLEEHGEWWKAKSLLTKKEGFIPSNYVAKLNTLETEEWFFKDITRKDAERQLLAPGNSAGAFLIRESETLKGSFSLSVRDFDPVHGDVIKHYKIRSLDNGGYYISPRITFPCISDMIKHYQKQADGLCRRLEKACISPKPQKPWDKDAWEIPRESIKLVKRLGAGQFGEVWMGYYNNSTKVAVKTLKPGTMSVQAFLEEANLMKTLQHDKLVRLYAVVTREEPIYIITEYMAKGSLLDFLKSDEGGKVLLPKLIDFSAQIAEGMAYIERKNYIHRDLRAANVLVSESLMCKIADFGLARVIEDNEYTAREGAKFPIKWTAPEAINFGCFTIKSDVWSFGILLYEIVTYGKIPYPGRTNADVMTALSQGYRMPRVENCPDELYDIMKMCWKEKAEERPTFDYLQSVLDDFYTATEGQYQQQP
UniProt P43403: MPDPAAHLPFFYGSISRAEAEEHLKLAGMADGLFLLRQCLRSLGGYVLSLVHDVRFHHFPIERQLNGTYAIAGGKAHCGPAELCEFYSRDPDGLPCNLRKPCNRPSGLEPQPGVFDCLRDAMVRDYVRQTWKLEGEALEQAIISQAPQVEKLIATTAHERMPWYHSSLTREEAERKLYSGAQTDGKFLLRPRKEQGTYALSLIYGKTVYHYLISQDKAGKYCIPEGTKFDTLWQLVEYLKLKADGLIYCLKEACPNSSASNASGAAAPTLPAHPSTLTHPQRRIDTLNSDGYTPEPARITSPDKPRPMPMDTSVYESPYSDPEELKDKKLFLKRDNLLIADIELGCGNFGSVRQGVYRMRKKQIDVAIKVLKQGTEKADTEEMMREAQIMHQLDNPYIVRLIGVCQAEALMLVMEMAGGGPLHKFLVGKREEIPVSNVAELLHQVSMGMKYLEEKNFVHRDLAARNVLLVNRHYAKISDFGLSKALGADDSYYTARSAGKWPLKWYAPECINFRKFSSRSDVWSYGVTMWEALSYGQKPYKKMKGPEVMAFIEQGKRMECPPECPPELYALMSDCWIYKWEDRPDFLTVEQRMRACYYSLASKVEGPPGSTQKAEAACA
UniProt Q13153, whole entry, looked up: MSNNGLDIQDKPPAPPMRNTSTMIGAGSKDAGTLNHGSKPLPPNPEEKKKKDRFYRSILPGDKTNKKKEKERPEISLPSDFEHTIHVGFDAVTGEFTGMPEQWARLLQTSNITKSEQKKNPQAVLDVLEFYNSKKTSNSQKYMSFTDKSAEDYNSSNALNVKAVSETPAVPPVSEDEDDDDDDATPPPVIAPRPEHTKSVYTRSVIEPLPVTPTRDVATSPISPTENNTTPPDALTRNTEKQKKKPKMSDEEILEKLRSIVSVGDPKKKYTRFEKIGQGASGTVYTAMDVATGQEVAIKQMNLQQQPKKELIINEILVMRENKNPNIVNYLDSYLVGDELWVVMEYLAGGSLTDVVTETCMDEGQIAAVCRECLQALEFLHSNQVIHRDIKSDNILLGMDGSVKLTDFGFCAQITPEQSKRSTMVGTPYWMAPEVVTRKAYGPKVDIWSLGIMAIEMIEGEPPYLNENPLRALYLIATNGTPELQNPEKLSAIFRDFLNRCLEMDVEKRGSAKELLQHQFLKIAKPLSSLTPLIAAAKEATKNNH
UniProt P51817: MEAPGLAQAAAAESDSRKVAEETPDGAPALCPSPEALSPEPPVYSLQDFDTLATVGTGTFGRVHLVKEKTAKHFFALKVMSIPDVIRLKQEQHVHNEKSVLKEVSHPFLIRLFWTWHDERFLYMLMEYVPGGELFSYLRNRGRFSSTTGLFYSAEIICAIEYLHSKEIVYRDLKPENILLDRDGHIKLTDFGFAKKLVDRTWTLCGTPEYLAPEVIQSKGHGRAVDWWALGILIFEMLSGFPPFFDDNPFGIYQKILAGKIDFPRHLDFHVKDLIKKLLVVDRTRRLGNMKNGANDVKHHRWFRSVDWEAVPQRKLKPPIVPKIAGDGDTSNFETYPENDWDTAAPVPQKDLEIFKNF
UniProt Q9Y3S1: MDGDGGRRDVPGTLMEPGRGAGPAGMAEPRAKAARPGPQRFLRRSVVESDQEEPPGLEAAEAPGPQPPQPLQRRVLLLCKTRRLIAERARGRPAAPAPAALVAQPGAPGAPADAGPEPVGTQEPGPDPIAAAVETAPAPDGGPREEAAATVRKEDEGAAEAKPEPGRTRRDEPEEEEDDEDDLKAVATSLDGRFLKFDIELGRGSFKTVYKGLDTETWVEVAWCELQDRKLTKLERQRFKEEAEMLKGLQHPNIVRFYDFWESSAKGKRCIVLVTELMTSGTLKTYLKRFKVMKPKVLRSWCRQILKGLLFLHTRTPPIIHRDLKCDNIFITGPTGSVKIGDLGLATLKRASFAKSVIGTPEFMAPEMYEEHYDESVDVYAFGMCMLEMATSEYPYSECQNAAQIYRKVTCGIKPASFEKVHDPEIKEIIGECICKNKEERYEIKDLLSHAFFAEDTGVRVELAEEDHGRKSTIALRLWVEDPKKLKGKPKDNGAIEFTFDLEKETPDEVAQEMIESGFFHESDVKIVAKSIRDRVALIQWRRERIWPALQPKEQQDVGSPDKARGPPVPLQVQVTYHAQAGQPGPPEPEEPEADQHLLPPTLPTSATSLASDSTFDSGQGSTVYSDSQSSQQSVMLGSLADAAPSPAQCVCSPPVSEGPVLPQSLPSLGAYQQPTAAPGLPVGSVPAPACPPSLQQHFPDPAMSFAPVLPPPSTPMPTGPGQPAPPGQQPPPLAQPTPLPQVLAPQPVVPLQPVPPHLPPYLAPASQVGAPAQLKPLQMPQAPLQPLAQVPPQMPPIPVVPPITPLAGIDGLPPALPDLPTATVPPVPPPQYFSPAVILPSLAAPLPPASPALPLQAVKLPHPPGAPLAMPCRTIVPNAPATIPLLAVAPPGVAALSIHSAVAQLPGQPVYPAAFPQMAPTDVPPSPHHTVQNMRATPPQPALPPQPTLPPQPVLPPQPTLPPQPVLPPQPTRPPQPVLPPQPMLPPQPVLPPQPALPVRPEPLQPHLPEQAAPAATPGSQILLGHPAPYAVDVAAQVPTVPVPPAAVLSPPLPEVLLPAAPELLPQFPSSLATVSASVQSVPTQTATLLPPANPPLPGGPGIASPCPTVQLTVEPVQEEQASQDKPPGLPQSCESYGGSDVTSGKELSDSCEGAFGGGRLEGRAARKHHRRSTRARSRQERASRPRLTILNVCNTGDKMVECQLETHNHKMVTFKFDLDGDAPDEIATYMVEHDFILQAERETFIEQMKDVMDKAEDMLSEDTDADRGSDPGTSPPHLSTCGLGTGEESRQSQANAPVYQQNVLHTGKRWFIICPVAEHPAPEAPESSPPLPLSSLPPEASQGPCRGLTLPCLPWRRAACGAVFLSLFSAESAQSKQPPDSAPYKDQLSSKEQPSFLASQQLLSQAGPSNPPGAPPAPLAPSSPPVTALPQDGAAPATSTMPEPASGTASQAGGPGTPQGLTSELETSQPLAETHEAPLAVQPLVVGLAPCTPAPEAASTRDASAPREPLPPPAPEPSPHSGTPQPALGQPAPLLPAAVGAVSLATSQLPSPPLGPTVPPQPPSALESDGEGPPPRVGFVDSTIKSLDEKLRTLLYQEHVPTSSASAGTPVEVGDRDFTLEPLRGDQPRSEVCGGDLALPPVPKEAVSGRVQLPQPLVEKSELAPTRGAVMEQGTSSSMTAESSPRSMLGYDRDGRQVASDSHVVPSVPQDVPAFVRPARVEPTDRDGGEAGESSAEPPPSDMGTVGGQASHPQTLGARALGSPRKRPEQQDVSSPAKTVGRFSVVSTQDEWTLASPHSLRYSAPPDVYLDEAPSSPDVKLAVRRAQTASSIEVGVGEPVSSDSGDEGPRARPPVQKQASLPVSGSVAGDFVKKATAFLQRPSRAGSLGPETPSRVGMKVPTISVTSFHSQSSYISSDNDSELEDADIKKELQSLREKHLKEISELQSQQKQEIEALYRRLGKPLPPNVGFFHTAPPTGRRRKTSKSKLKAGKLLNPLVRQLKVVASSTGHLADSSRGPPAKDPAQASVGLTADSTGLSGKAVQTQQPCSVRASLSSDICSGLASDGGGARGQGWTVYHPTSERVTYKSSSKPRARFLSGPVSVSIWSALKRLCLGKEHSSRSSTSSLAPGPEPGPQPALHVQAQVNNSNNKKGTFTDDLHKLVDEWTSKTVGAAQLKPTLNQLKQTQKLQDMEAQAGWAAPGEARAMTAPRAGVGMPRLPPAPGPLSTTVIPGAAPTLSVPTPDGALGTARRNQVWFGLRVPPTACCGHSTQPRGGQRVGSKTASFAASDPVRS

How the values were obtained:
Assay in all cases: radiometric filter-binding kinase assay, Kinase HotSpot
Conditions in all cases: compound 0.5 µM; ATP 10 µM
AURKC (human) = AURKC (human) (UniProt Q9UQB9)
IKBKE (human) = IKBKE (human) (UniProt Q14164)
DDR2 (human) = DDR2 (human) (UniProt Q16832)
CHEK2 (human) = CHEK2 (human) (UniProt O96017)
EPHA3 (human) = EPHA3 (human) (UniProt P29320)
MST1R (human) = MST1R (human) (UniProt Q04912)
ROS1 (human) = ROS1 (human) (UniProt P08922)
FER (human) = FER (human) (UniProt P16591)
DAPK2 (human) = DAPK2 (human) (UniProt Q9UIK4)
BTK (human) = BTK (human) (UniProt Q06187)
GRK6 (human) = GRK6 (human) (UniProt P43250)
STK11 (human) = STK11 (human) (UniProt Q15831)
NEK3 (human) = NEK3 (human) (UniProt P51956)
CSNK1G3 (human) = CSNK1G3 (human) (UniProt Q9Y6M4)
PRKD2 (human) = PRKD2 (human) (UniProt Q9BZL6)
PRKD1 (human) = PRKD1 (human) (UniProt Q15139)
PRKD3 (human) = PRKD3 (human) (UniProt O94806)
ABL2 (human) = ABL2 (human) (UniProt P42684)
MST4 (human) = MST4 (human) (UniProt Q9P289)
MAP4K5 (human) = MAP4K5 (human) (UniProt Q9Y4K4)
LYN (human) = LYN (human) (UniProt P07948)
FES (human) = FES (human) (UniProt P07332)
RPS6KB1 (human) = RPS6KB1 (human) (UniProt P23443)
ZAP70 (human) = ZAP70 (human) (UniProt P43403)
RET (human) = RET (human) (UniProt P07949)
KDR (human) = KDR (human) (UniProt P35968)
PRKG2 (human) = PRKG2 (human) (UniProt Q13237)
SYK (human) = SYK (human) (UniProt P43405)
MAPK10 (human) = MAPK10 (human) (UniProt P53779)
TTK (human) = TTK (human) (UniProt P33981)
MUSK (human) = MUSK (human) (UniProt O15146)
PRKCD (human) = PRKCD (human) (UniProt Q05655)
PRKCB1 (human) = PRKCB1 (human) (UniProt P05771)
MATK (human) = MATK (human) (UniProt P42679)
MAP2K2 (human) = MAP2K2 (human) (UniProt P36507)
PAK1 (human) = PAK1 (human) (UniProt Q13153)
ROCK1 (human) = ROCK1 (human) (UniProt Q13464)
PRKX (human) = PRKX (human) (UniProt P51817)
IRAK1 (human) = IRAK1 (human) (UniProt P51617)
WNK2 (human) = WNK2 (human) (UniProt Q9Y3S1)
PRKACA (human) = PRKACA (human) (UniProt P17612)
JAK2 JH1 JH2 (human) = JAK2 JH1 JH2 (human) (UniProt O60674)

## O=C1Nc2ccc3ncsc3c2/C1=C/c1c[nH]cn1
AURKC (human)
  residual activity: 31.4%
IKBKE (human)
  residual activity: 27.6%
DDR2 (human)
  residual activity: 101%
CHEK2 (human)
  residual activity: 49.8%
EPHA3 (human)
  residual activity: 77.1%
MST1R (human)
  residual activity: 70.2%
ROS1 (human)
  residual activity: 73.6%
FER (human)
  residual activity: 77.9%
DAPK2 (human)
  residual activity: 125%
BTK (human)
  residual activity: 85.2%
GRK6 (human)
  residual activity: 67.7%
STK11 (human)
  residual activity: 13.5%
NEK3 (human)
  residual activity: 80.2%
CSNK1G3 (human)
  residual activity: 65.8%
PRKD2 (human)
  residual activity: 4.17%
PRKD1 (human)
  residual activity: 4.14%
PRKD3 (human)
  residual activity: 3.58%
ABL2 (human)
  residual activity: 69.8%
MST4 (human)
  residual activity: 10.8%
MAP4K5 (human)
  residual activity: 6.41%
LYN (human)
  residual activity: 73.2% and 84.5%
FES (human)
  residual activity: 73.5%
RPS6KB1 (human)
  residual activity: 57.1%
ZAP70 (human)
  residual activity: 99%
RET (human)
  residual activity: 10.6%
KDR (human)
  residual activity: 34.5%
PRKG2 (human)
  residual activity: 3%
SYK (human)
  residual activity: 74.4%
MAPK10 (human)
  residual activity: 117%
TTK (human)
  residual activity: 31.1%
MUSK (human)
  residual activity: 21.6%
PRKCD (human)
  residual activity: 29.1%
PRKCB1 (human)
  residual activity: 87.3%
MATK (human)
  residual activity: 102%
MAP2K2 (human)
  residual activity: 95%
PAK1 (human)
  residual activity: 81.1%
ROCK1 (human)
  residual activity: 26%
PRKX (human)
  residual activity: 28.2%
IRAK1 (human)
  residual activity: 52.5%
WNK2 (human)
  residual activity: 120%
PRKACA (human)
  residual activity: 40.1%
JAK2 JH1 JH2 (human)
  residual activity: 69.9%
